Values of other authors in PMC4564290 (Journal of Molecular and Cellular Cardiology, 2015).

Columns and labels:
Settings in all cases: cited from earlier work
T623A hERG = T623A hERG (Homo sapiens, UniProt Q12809, T623A); parameters: expressed in transfected cells; host or cells: HEK cells; method as in PMID 11005845
V625A hERG = V625A hERG (Homo sapiens, UniProt Q12809, V625A); parameters: expressed in transfected cells; host or cells: HEK cells; method as in PMID 11005845
F656A hERG = F656A hERG (Homo sapiens, UniProt Q12809, F656A)
G648A hERG = G648A hERG (Homo sapiens, UniProt Q12809, G648A); parameters: expressed in transfected cells; host or cells: HEK cells; method as in PMID 11005845
Y652A hERG = Y652A hERG (Homo sapiens, UniProt Q12809, Y652A); parameters: expressed in transfected cells

CS(=O)(=O)Nc1ccc2c(c1)[C@H](O)CC1(CCN([C@@H]3CCc4cc(C#N)ccc4C3)CC1)O2 [MK499]
Increase in IhERG IC50 with T623A (T623A hERG): 5 fold | Increase in IhERG IC50 with V625A (V625A hERG): 50 fold | Increase in IhERG IC50 with F656A (F656A hERG): 650 fold | IC50 with G648A relative to WT IhERG (G648A hERG): 55 fold | Increase in IhERG IC50 with Y652A (Y652A hERG): 94 fold
